Experimental data as given in US10918645B2 (LIFEARC, priority 2016, dated 2021).

By UniProt entry, the sequences of proteins in these tests, tags left out. Residues count along the entry.
UniProt Q5S007, 970-2527 G2019S: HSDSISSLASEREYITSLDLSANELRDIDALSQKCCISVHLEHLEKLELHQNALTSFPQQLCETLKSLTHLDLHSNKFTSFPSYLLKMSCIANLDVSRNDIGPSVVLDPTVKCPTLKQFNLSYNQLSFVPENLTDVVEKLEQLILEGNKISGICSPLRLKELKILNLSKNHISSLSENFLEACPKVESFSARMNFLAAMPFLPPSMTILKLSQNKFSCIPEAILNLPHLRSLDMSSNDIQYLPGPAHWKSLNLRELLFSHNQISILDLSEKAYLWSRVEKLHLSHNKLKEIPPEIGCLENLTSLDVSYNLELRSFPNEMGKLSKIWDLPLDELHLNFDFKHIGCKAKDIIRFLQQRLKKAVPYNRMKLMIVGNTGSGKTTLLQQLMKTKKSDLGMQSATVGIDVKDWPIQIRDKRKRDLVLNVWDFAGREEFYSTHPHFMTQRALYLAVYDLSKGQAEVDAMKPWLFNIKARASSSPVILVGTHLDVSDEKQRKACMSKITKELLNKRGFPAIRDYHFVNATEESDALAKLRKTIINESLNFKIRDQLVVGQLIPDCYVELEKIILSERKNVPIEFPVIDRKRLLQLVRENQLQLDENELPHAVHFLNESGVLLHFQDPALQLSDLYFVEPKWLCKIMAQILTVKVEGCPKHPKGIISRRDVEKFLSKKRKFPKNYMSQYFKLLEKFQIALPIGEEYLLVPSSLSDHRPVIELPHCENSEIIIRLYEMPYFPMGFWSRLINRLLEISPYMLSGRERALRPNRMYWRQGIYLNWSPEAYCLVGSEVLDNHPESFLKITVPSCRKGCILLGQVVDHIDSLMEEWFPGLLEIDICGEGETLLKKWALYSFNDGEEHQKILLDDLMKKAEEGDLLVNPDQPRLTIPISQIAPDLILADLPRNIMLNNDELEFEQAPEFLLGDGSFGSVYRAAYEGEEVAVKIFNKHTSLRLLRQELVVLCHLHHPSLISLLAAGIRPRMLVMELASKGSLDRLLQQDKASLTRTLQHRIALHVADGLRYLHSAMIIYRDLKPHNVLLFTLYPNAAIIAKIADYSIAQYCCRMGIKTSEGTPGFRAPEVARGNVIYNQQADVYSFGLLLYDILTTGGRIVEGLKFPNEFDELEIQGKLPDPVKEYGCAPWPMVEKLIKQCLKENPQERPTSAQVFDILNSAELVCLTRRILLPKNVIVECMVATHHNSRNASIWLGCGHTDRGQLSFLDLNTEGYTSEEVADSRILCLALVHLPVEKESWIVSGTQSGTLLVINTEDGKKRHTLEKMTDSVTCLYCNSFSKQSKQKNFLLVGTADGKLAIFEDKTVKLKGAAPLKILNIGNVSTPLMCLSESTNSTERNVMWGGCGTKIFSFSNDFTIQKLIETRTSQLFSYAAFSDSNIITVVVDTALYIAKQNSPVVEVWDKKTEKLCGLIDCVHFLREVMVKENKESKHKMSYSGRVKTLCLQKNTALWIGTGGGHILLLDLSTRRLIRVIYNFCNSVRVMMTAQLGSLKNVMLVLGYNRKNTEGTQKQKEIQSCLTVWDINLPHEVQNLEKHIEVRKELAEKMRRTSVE

Biological target: LRRK2 G2019S (Homo sapiens (Human), UniProt Q5S007, G2019S)
Assay: Adapta Kinase Assay (LRRK2_IC50 assay)
Assay type: biochemical
Conditions: inhibition of LRRK2 G2019S
Method: In Adapta™ Kinase Assay (LRRK2_IC50 assay): the Kinase Reaction Buffer contained 5× Kinase Buffer S (Life Technologies, PV5213) and 2 mM DTT (Life Technologies, P2325).
The Adapta® universal kinase assay is a homogenous, fluorescent based immunoassay for the detection of ADP. In contrast to ATP depletion assays, the Adapta® assay is extremely sensitive to ADP formation such that a majority of the signal change occurs in the first 10-20% conversion of ATP to ADP. This makes the Adapta® universal kinase assay ideally suited for use with low activity kinases.
Prepare a 1× solution of kinase reaction buffer from the 5× Kinase Buffer S stock (listed above) by adding 2 ml of 5× stock to 8 ml of H2O to make 10 ml of 1× kinase reaction buffer. To this, add 20 μl of 1 M DTT.
Kinase reactions are performed in a 10 μl volume in low-volume 384-well plates. […] Other non—treated assay plates, while not tested, may also be suitable. The concentration of substrate in the assay is 100 μM, and the 1× kinase reaction buffer consists of 50 mM Tris-HCl pH8.5, 10 mM MgCl2, 1 mM EGTA, 0.01% Brij-35, and 2 mM DTT, plus any additional additives that may be required for a specific kinase. […] The plate is allowed to equilibrate at room temperature for at least 30 minutes before being read on a plate reader configured for Adapta™ TR-FRET.
The data presented in this document were generated using a BMG LABTECH PHERAstar plate reader using the appropriate filters and instrument settings for Adapta™. The Test Compounds are screened in 1% DMSO (final) in the well. For 8 point titrations, 5-fold serial dilutions are conducted from the starting concentration.
IC50 estimates were obtained using the software XLfit (IDBS Inc.).

First: CCN1CCCc2n[nH]c3ccnc1c23 [Example 17, 6-ethyl-6,7,8,9-tetrahydro-2H-1,2,5,6-tetraazabenzo[cd]azulene]
Second: c1cc2[nH]nc3c2c(n1)N(C1CCC1)CCC3 [Example 22, 6-cyclobutyl-6,7,8,9-tetrahydro-2H-1,2,5,6-tetraazabenzo[cd]azulene]
The IC50 of the first is 5.8-fold higher: 810 nM for the first, 140 nM for the second.

Work on `c1ccc2c(c1)CN(C1CCOCC1)c1nccc3[nH]nc-2c13` [Example 58] yielded an IC50 of 74 nM.
